Test system: MDCK cell line
Assay: MDCK cell permeability assay
Format: in vitro ADME
Details: 1 μM, 2 h

Cc1ccc(NC(=O)c2ccc(CN3CCN(C)CC3)cc2)cc1Nc1nccc(-c2cccnc2)n1 [Imatinib, imatinib]
Papp (A-B) (10^−6, cm/s) (apical to basolateral): 7.69 10^−6, cm/s
Papp (B-A) (10^−6, cm/s) (basolateral to apical): 6.50 10^−6, cm/s

Reference: paper PMC7954990 (European journal of medicinal chemistry, 2021)
